# AlphaSeq binding of Ab-14 light chain variants to a spike HR2 peptide

Reference: Engelhart et al. 2022, doi:10.1038/s41597-022-01779-4. File: FLAb, binding data.

Target: peptide PDVDLGDISGINAS, taken from heptad repeat 2 (HR2) of SARS-CoV-2 spike.

Ab-14 is the parent antibody, in scFv form: VH, then a (GGGGS)3 linker, then VL. The heavy chain is unchanged in all variants.
VH: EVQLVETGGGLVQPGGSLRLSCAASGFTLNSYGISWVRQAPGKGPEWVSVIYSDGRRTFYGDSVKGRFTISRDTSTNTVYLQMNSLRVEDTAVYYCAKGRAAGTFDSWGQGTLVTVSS
VL: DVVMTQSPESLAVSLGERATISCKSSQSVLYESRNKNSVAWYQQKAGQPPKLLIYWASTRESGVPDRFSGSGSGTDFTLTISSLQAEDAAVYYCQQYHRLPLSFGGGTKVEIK

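AAYL50 was designed without a model: most single CDR substitutions and a random sample of double and triple ones. In AlphaSeq, yeast of one mating type display the scFv and yeast of the other type display the target. Mating (16 h, 30 °C) was followed by selection of diploids and sequencing of their barcodes. Read counts were normalised to the haploid input and turned into Kd by a linear fit to BCL2-family pairs of known affinity, for each replicate. The assay was run in three technical replicates.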

Each variant is given by its three light chain CDRs, as the data file delimits them; those of the parent are KSSQSVLYESRNKNSVA, WASTRES, QQYHRLPLS.
Values are log10 of the apparent Kd in nM; lower means stronger binding.
Where no diploid with the target was found in that replicate, the entry reads "n.d.": below detection, most likely a poor binder, though not proof of it.

| CDR-L1 | CDR-L2 | CDR-L3 | replicates, log10 nM | empty controls |
|---|---|---|---|---|
| KDSQSVLKESRNKPSVA | WASTRES | QQYHRLPLS | 1.94 / 2.74 / 3.76 | 0/9 |
| KRSLSVLYESRNKNSVA | WASTRES | YQYHRLPLS | n.d. / n.d. / n.d. | 0/9 |
| KSSQQVLYKSRNKNSVA | WASTRES | QQYHRLPLS | 2.82 / 2.37 / n.d. | 1/9 (2.63) |
| KSSQSVLYESRNKNSVA | WRSTREM | QQYHRLPLS | n.d. / n.d. / n.d. | 2/9 (3.99) |
| NSSQSVLYESRNKNSVA | WASTWAS | QQYHRLPLS | n.d. / n.d. / n.d. | 3/9 (3.52) |
| KSSQSVNYESRNKNSEA | WASTREA | QQYHRLPLS | 4.19 / 5.35 / 6.06 | 3/9 (3.96) |
| YSSQSVLYESRNKNSNA | WASTRES | QQYHRLPLS | n.d. / n.d. / n.d. | 5/9 (4.06) |
| KSSNSVLYESRNKNSKA | WASTRRS | QQYHRLPLS | n.d. / n.d. / n.d. | 0/9 |
| KSSQINLYESRNKNSVA | WASTFES | QQYHRLPLS | n.d. / 4.05 / n.d. | 1/9 (5.62) |
| KCSQSVLYESRNKNSVA | WASFRES | QQYHRRPLS | 4.05 / n.d. / n.d. | 0/9 |
| KASQSVLDESRNKNRVA | WASTRES | QQYHRLPLS | 2.41 / 3.08 / 2.65 | 2/9 (4.34) |
| KSSQSVLYESRNKLSVA | WASSRES | QQYHRLCLS | n.d. / n.d. / n.d. | 0/9 |
| KSSQSVLYESRCKNSVA | WASTREI | QCYHRLPLS | 2.52 / 2.97 / 2.95 | 2/9 (4.04) |
| KSSQTVLYESRNKNSRA | WASTRES | QQYHRLPWS | n.d. / n.d. / n.d. | 0/9 |
| LSSQSVLYESRNKNVVA | WASVRES | QQYHRLPLS | n.d. / n.d. / n.d. | 1/9 (4.03) |
| KSSQSVQYESRNKNSVA | QASTRMS | QQYHRLPLS | -0.03 / 0.26 / 0.08 | 6/9 (5.01) |
| KNSQSVLYESRNKNSVA | WAVTRES | FQYHRLPLS | 4.74 / 3.32 / n.d. | 4/9 (4.35) |
| KSSQSVLYQSRNMNSVA | WASTRES | QQYHRLPLS | 0.72 / 1.07 / 0.78 | 1/9 (3.46) |
| KSSMSVLYESRIKNSVA | WASTRES | QQYHRLPAS | n.d. / n.d. / n.d. | 0/9 |
| KSSQSVLYESRNKNSVA | WRSTLES | QPYHRLPLS | n.d. / n.d. / 5.07 | 5/9 (4.12) |
| KSSQLVLYESRNKNSVA | WASTRES | QQYHNPPLS | n.d. / n.d. / n.d. | 0/9 |
| KSSQSVLYESRNKNSVA | WAVTDES | QQYHRLPLI | n.d. / n.d. / n.d. | 2/9 (4.85) |
| KSRQSVLYEARNKNSVA | WASTRES | QQSHRLPLS | 3.80 / n.d. / n.d. | 1/9 (3.74) |
| KSSQSVLYESRNKNSVA | WASMRRS | QQYHRLPLS | 2.66 / 2.23 / 3.20 | 1/9 (4.16) |
| KSSQSVLYESRNKNSVA | VASTRES | IQTHRLPLS | 4.21 / 3.48 / 3.85 | 2/9 (4.01) |
| KRSQSVLYGSRNKNSVA | WASTRES | QQYHRLPLE | n.d. / n.d. / 4.33 | 2/9 (4.08) |
| KSSQSVLYESRNKNSVW | WASTRES | QQYERLPGS | n.d. / n.d. / n.d. | 5/9 (4.74) |
| KSSQSVTYESRNKNSVA | WAVTRES | QQYARLPLS | 1.05 / 1.18 / 1.44 | 1/9 (4.34) |
| KVSQSVLYESRNKPSVA | WASTRER | QQYHRLPLS | 1.25 / 1.62 / 1.52 | 2/9 (3.56) |
| ASSQSVLYEPRNKISVA | WASTRES | QQYHRLPLS | 3.40 / 3.05 / 6.11 | 2/9 (4.46) |
| KSSQSVLYESCNKNSVA | WASMRES | QQYHRNPLS | 1.31 / 1.44 / 1.32 | 4/9 (4.05) |
| KSSQSVLYLSRNKNSVA | WASTRES | QQYHLLPPS | 1.37 / 1.75 / 1.31 | 0/9 |
| KSSQSVLYESRNKNYVA | WASCRES | QQYHRLPLW | n.d. / n.d. / n.d. | 0/9 |
| KSNQSVLYESRNKNSTA | WASTRES | QQYHRLILS | n.d. / 2.95 / n.d. | 0/9 |
| MSNQSVLYESRNKNSVA | WASTRES | QQDHRLPLS | n.d. / n.d. / n.d. | 0/9 |
| KSSQSVLYESRNKNPVA | HASTRES | QQYHRPPLS | 5.31 / 4.60 / 5.64 | 6/9 (4.73) |
| KSSQSVLYESRNKNSVA | WASLRET | QQYHLLPLS | n.d. / 3.10 / 3.56 | 2/9 (3.35) |
| KSSQSVLYESRNNNSVA | WASTRES | VQYHRLSLS | n.d. / n.d. / n.d. | 0/9 |
| KSSQSVLYESRNKNSVA | WASTRES | QQWHALPAS | 1.82 / 1.83 / 1.76 | 4/9 (4.60) |
| VSSQSVLYESRNKNSVA | WASFYES | QQYHRLPLS | n.d. / n.d. / n.d. | 0/9 |
| KSSQSVLYYSRWKNSVA | WASGRES | QQYHRLPLS | n.d. / n.d. / n.d. | 2/9 (3.90) |
| KSSCSVLYESRNSNSVA | WASTRES | QQYHRLPLS | 1.01 / 1.12 / 1.17 | 2/9 (4.42) |
| KSSQSVLYESRNKNSVA | WVSPRES | QEYHRLPLS | n.d. / n.d. / n.d. | 2/9 (4.29) |
| KSSQSVLYESRNKNSVA | DASTRES | QKYHRLPES | 1.79 / 1.76 / 1.82 | 5/9 (3.60) |

Repeated from above, the 7 best binders with a signal in all replicates:

| CDR-L1 | CDR-L2 | CDR-L3 | replicates, log10 nM | empty controls |
|---|---|---|---|---|
| KSSQSVQYESRNKNSVA | QASTRMS | QQYHRLPLS | -0.03 / 0.26 / 0.08 | 6/9 (5.01) |
| KSSQSVLYQSRNMNSVA | WASTRES | QQYHRLPLS | 0.72 / 1.07 / 0.78 | 1/9 (3.46) |
| KSSCSVLYESRNSNSVA | WASTRES | QQYHRLPLS | 1.01 / 1.12 / 1.17 | 2/9 (4.42) |
| KSSQSVTYESRNKNSVA | WAVTRES | QQYARLPLS | 1.05 / 1.18 / 1.44 | 1/9 (4.34) |
| KSSQSVLYESCNKNSVA | WASMRES | QQYHRNPLS | 1.31 / 1.44 / 1.32 | 4/9 (4.05) |
| KVSQSVLYESRNKPSVA | WASTRER | QQYHRLPLS | 1.25 / 1.62 / 1.52 | 2/9 (3.56) |
| KSSQSVLYLSRNKNSVA | WASTRES | QQYHLLPPS | 1.37 / 1.75 / 1.31 | 0/9 |

Background: pairings of library AAYL50 with three empty control strains gave a value in 18% of cases (median 4.19, 5th percentile 2.99). Values in that range, when seen in few replicates, are hard to tell from nonspecific mating. The control count says in how many pairings with the empty strains this scFv gave a signal, with their mean in brackets.